Results reported in patent US10508120B2, “TYK2 inhibitors and uses thereof” (Nimbus Lakshmi, Inc., priority 2017, dated 2019).

Protein sequences, listed by entry. Tags and fused reporters are not part of them. Residues count along the entry.
UniProt O60674, 849-1124 limits assumed: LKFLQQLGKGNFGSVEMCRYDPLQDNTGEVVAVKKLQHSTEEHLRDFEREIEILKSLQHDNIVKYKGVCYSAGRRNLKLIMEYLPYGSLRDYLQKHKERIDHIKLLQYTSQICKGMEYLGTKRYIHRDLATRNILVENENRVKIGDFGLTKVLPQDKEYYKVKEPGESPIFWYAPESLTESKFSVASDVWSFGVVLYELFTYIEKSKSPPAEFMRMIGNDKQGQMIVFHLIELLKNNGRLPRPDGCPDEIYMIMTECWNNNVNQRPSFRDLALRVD

Target: JAK2 kinase domain (JH1) (Homo sapiens (Human), UniProt O60674)
Assay: JAK2 Radioactive Kinase Assay
Format: biochemical
Details: compound at 10 μM; ATP 10 μM

Compound | JAK2 JH1% Inhibition @ 10 μM
CNc1cc(Nc2cc(F)cn(C3CCOCC3)c2=O)nc2c(C(=O)NCC(C)(C)CO)cnn12 | A (percent inhibition at 10 μM lower than 50)
CNc1cc(Nc2cccc(N3CCOC4(CCOC4)C3)n2)nc2c(C(=O)NC3CC3)cnn12 (stereo not drawn) | A (percent inhibition at 10 μM lower than 50)
CNc1cc(Nc2cccnc2OC2CC2)nc2c(C(=O)NC3CC4(COC4)C3)cnn12 | B (percent inhibition at 10 μM between 50 and 70)
